Laboratory results reported in patent publication US12600705B2, “Heat shock protein modulators and anti-Huntington disease therapeutic agents” (UNIVERSITY OF PITTSBURGH-OF THE COMMONWEALTH SYSTEM OF …, priority 2020, dated 2026).

Amino acid sequences for entries named in this document (tags omitted). A change or cut given only in a name is not applied to a line headed by its entry.
UniProt Q9UQL6: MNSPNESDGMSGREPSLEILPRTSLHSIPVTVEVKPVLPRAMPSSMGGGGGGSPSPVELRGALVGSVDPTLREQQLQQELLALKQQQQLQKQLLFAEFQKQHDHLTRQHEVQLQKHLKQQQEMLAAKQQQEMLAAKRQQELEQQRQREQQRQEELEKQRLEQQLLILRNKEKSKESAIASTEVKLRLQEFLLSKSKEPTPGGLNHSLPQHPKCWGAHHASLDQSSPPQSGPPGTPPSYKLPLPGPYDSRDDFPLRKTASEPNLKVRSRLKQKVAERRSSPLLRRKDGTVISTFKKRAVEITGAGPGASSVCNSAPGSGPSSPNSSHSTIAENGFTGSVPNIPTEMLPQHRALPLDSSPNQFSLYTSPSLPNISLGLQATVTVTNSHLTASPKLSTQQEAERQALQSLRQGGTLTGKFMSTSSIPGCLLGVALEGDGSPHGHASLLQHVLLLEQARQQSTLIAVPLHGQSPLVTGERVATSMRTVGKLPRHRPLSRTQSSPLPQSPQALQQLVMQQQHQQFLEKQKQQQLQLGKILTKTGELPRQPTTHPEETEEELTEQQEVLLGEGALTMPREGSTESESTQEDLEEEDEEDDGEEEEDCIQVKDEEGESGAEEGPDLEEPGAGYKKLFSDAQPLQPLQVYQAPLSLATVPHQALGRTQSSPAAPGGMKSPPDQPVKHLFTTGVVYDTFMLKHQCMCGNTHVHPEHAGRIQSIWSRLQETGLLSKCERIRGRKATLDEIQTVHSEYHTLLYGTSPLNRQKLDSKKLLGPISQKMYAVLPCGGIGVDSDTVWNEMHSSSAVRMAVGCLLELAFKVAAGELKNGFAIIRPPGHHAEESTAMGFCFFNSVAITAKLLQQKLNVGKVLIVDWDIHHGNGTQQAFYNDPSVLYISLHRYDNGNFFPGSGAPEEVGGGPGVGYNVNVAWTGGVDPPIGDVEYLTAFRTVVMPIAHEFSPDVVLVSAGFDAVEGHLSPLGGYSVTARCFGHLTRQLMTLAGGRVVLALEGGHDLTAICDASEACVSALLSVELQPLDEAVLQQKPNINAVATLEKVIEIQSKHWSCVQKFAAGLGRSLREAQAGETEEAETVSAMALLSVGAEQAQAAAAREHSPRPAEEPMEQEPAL
UniProt P56524: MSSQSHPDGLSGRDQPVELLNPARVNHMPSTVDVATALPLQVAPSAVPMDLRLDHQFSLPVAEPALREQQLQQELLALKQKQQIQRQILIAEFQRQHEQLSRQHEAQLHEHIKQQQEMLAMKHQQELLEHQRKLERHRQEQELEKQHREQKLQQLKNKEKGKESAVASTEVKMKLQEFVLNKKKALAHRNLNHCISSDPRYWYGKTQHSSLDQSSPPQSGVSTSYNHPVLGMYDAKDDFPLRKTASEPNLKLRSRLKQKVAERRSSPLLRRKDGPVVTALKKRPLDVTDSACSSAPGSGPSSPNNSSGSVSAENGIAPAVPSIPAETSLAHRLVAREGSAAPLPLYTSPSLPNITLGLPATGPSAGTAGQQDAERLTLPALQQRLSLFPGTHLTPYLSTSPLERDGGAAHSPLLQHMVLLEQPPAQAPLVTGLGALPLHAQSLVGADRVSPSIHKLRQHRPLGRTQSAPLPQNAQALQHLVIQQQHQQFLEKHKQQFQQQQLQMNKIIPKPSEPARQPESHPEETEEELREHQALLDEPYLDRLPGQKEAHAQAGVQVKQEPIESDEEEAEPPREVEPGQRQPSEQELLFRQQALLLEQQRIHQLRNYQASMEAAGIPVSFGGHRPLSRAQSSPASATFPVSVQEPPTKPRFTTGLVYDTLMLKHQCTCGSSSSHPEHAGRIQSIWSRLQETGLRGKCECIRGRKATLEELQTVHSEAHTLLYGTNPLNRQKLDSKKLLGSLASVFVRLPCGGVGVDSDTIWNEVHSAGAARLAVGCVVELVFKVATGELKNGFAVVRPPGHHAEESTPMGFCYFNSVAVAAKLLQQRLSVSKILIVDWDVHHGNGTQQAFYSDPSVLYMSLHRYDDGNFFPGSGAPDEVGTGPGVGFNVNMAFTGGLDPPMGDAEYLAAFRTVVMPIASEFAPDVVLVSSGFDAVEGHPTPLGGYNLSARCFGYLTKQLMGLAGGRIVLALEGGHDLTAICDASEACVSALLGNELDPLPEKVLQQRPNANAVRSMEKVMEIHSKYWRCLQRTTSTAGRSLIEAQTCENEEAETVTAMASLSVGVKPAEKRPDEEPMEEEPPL

Assays:
[1] = molecular target: HDAC 5 (Homo sapiens, UniProt Q9UQL6); assay: HDAC 5 assay (BPS Bioscience kit)
[2] = molecular target: HDAC 4 human recombinant enzyme (Homo sapiens, UniProt P56524); assay: HDAC 4 assay (BPS Bioscience kit)
[3] = molecular target: T1, HDAC 8 (Homo sapiens, UniProt Q9BY41); assay: HDAC 8 assay (BPS Bioscience kit)
T1 sequence (Q9BY41 1-377): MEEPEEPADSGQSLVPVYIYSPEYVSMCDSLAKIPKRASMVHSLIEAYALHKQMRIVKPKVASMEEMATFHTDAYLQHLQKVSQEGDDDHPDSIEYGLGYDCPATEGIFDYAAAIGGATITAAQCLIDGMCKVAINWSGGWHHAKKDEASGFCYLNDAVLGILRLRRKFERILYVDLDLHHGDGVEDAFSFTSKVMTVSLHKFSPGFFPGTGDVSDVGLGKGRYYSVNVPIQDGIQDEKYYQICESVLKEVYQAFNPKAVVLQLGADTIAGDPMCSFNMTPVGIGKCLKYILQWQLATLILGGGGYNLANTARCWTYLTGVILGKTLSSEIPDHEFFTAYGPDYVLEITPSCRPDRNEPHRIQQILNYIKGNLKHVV

CC(/C=C/C(=O)NO)=C\[C@@H](C)C(=O)c1ccc(N(C)C)cc1 [TSA, Trichostatin A]
Percent Inhibition ([1]; HDAC 5, standard at 0.2 uM): NIA
Percent Inhibition ([1]; HDAC 5, standard at 0.5 uM): 20%
Percent Inhibition ([1]; HDAC 5, standard at 1 uM): 41%
Percent Inhibition ([1]; HDAC 5, standard at 2 uM): 63%
Percent Inhibition ([1]; HDAC 5, standard at 5 uM): 73%
Percent Inhibition ([1]; HDAC 5, standard at 10 uM): 85%
Percent Inhibition ([2]; HDAC 4, standard at 0.5 uM): NIA
Percent Inhibition ([2]; HDAC 4, standard at 1 uM): 17%
Percent Inhibition ([2]; HDAC 4, standard at 3 uM): 35%
Percent Inhibition ([2]; HDAC 4, standard at 7 uM): 67%
Percent Inhibition ([2]; HDAC 4, standard at 10 uM): 77%
Percent Inhibition ([3]; 0.01 µM): 51%
Percent Inhibition ([3]; 0.1 µM): 67%
Percent Inhibition ([3]; 1 µM): 80%
Percent Inhibition ([3]; 5 µM): 87%
Percent Inhibition ([3]; 10 µM): 97%
